# Values of other authors in patent US8389024B2, “Abscisic acid against cancer” (priority 2005, dated 2013).
# Settings: calculated at 30% of acetonitrile (Kelen et al. 2004)
substance,measurement,value
"[S-(Z,E)]-5-(1-Hydroxy-2,6,6-trimethyl-4-oxo-2-cyclohexen-1-yl)-3-methyl-2,4-pentadienoic acid [ABA]",ABA pK value,5.82
